Here are results for 24 molecules from PubChem BioAssay AID743397 (Broad Institute, 2014).

The inhibition is the change of the read-out against control, counted positive when it falls.

The list shows a part of the results, in another mix than the full data. Some tests of the compounds listed are not included; inactive here does not mean inactive elsewhere. The source made the active and inactive calls.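 How the source made its calls: active means mean replicate inhibition of at least 30% and at least 1% of replicates passing that level; inconclusive means only one of the two criteria is met; inactive means neither criterion is met.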

The test deals with Voltage-dependent L-type calcium channel subunit alpha-1D (CaV1.3) ICDI/IQ interaction. The experiment in a line: Primary screen for inhibitors of IQ motif and Ca2+-dependent inactivation inhibitor domain binding in CACNA1D, Förster resonance energy transfer in living cells, single-concentration test (AID 743397).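 Further: 0% = median of the neutral control wells.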 Particulars: HEK cells, CFP/YFP FRET ICDI-IQ, plate reader, 10 min; at 12.3 µM; stronger effect = higher value; percent FRET-ratio fall versus neutral wells.
Consider `COc1ccc(Br)c(C(=O)NCC2(N3CCCCC3)CCCCC2)c1`, for which the inhibition was inactive: 2.73%.

Take `C=C(C)C#CC(O)(C(=O)OC1CCN(C)CC1)c1ccccc1` (centres undefined): the inhibition is inactive: -5.68%.

Regarding `CN(C)c1cccc(C(=O)NCC2(N(C)C)CCCCC2)c1`, the inhibition is inactive: 0.151%.

In the case of `CC(C)Oc1ccc(C(=O)NCC2(N(C)C)CCCCC2)cc1`, the inhibition was inactive: -3.8%.

For `O=C(OCCN1CCCC1)C(O)(c1ccccc1)c1ccccc1`, the inhibition was inactive: -7.56%.

Consider `COc1cccc(C(=O)NCC2(N3CCCCC3)CCCCC2)c1`, for which the inhibition is inactive: -3.54%.

For the molecule `COc1ccc(Cl)cc1C(=O)NCC1(N(C)C)CCCCC1`, the inhibition is inactive: -3.85%.

Take `O=C(NCC1(N2CCCCC2)CCCCC1)c1cccc(Cl)c1`: the inhibition was inactive: -3.43%.

On to `CN(C)C1(CNC(=O)c2ccc(Br)cc2)CCCCC1`, for which the inhibition is inactive: -19.2%.

With `COc1cc(C(=O)NCC2(N(C)C)CCCCC2)c([N+](=O)[O-])cc1OC`, the inhibition was inactive: -13.2%.

Take `C=CCN1CCN(CCOC(=O)C(O)(c2ccccc2)c2ccccc2)CC1`: the inhibition is inactive: -6.65%.

Regarding `O=C(NCC1(N2CCCCC2)CCCCC1)c1cc(F)c(F)cc1Cl`, the inhibition was inactive: -6.82%.

Consider `Cc1cc(C(=O)NCC2(N3CCCCC3)CCCCC2)ccc1[N+](=O)[O-]`, for which the inhibition is inactive: -2.18%.

Consider `CCN1CCCC(OC(=O)C2(O)c3ccccc3C=Cc3ccccc32)C1` (centres undefined), for which the inhibition was inactive: -4.14%.

Turning to `O=C(NCC1(N2CCCCC2)CCCCC1)c1cccc(Br)c1`, the inhibition was inactive: -4.76%.

With `COc1ccc(C(=O)NCC2(N(C)C)CCCCC2)cc1`, the inhibition was inactive: -19.3%.

As for `Cc1ccccc1C(=O)NCC1(N2CCCCC2)CCCCC1`, the inhibition is inactive: -3.94%.

Regarding `CN(C)C1CCCC1OC(=O)C(O)(c1ccccc1)c1ccccc1` (centres undefined), the inhibition is inactive: -3.09%.

For the molecule `CN(C)c1ccc(C(=O)NCC2(N(C)C)CCCCC2)cc1`, the inhibition is inactive: -2.19%.

Regarding `CCN(CC)CC(C)C(C)OC(=O)C(O)(c1ccccc1)c1ccccc1` (centres undefined), the inhibition is inactive: -6.21%.

For the molecule `COc1cc(SC)ccc1C(=O)NCC1(N(C)C)CCCCC1`, the inhibition is inactive: -17.3%.

For `Cc1ccc(C(=O)NCC2(N3CCCCC3)CCCCC2)cc1`, the inhibition was inactive: -3.91%.

As for `O=C(NCC1(N2CCCCC2)CCCCC1)c1cc([N+](=O)[O-])ccc1Cl`, the inhibition is inactive: -2.38%.

As to `CN1[C@@H]2CC[C@H]1CC(OC(=O)C(O)(c1ccccc1)c1ccccc1)C2` (some centres undefined), the inhibition is inactive: -5.1%.
